# Source: PubChem (National Center for Advancing Translational Sciences (NCATS))
# ALDH1A1 block – ALDH1A1 (human) enzyme inhibition; P00352; Purified ALDH1A1, NADH fluorescence, propionaldehyde substrate; Potency, µM (series often up to 75.3 µM), usual class: inhibitors; hit rate 7.3% among 220,000; AID 1030; active means well fitted inhibition curve with a large enough effect, not every such curve was filed as active; inconclusive means small, poorly fitted or top-dose-only effect, or another doubt; inactive means no such curve, though single readings can be large or run the other way
# LMNA splice mod – LMNA splicing modulation. HeLa LMNA splicing GFP/RFP minigene ratio, 48 h. Potency, µM (highest dose often 46.1 µM), actives largely listed as inhibitors. hit rate 0.01% among 200,000; active means well fitted inhibition curve with a large enough effect in the signal ratio, with a control signal flat, not every such curve was filed as active; inconclusive means small, poorly fitted or top-dose-only effect, or effect the other way, or a change in a side signal; the % refers to the signal ratio
#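 S3 HeLa cells stably expressing lamin A-EGFP splicing minigene plus DsRed2, 600 cells/well, 48 h compound exposure at 37C. Laser-scanning cytometry; analysed as GFP (500-530 nm)/RFP (575-640 nm) total intensity ratio; 0.5% DMSO vehicle.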
# JMJD2E inh – blocks human JMJD2E demethylase activity | JMJD2E catalytic domain, FDH-coupled NADH fluorescence (FDH is formaldehyde dehydrogenase) | Potency, µM (series often up to 57.1 µM), usual class: inhibitors | hit rate 1.6% among 230,000 | B2RXH2; active means well fitted inhibition curve with a large enough effect, not every such curve was filed as active; inconclusive means small, poorly fitted or top-dose-only effect, or another doubt; inactive means no such curve, though single readings can be large or run the other way; further: nearly all actives have a fitted effect of over 50% in size
# miR-21 reporter – raises the signal of a miR-21 reporter; AID 2288; 340,000 tested, under 10 active; Potency, µM (doses to about 38.3 µM); HeLa miR-21 FLuc reporter, luciferase, 48 h; active = well fitted rising curve with a large enough effect; inconclusive = small, poorly fitted or top-dose-only effect; inactive = no such curve, though single readings can be large or run the other way;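 note: miR-21 action dims this reporter so a rising signal means less miR-21 action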
#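 Using DMEM plus 10% FBS, HeLa miR-21-FLuc cells are incubated with test compounds (final up to about 40uM) for 48 hours; firefly luciferase signal is then imaged following reagent-mediated lysis.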
# Sfp PPTase inh – inhibitors of Bacillus subtilis Sfp phosphopantetheinyl transferase; AID 1490; Potency, µM, usual class: inhibitors; hit rate 3.5% among 310,000; Biochemical Sfp PPTase activity, qHTS;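 further: the enzyme is Sfp with the accession as filed and its product quenches rhodamine fluorescence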
#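 Reaction rates are the 30-min fluorescence difference (ex 525, em 598 nm) in wells containing 15 nM Sfp, 5 uM rhodamine-CoA and 12.5 uM BHQ-2-YbbR at pH 7.6 with 10 mM MgCl2.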
# G9a block – G9a (human) methyltransferase inhibition. Q96KQ7. G9a H3K9 monomethylation, AlphaScreen, 2 h. Potency, µM (top dose mostly 102 µM), actives largely listed as inhibitors. hit rate 8.8% among 350,000. AID 504332; further: nearly all actives have a fitted effect of over 75% in size
#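 Signal arises when biotinylated H3K9 peptide, once monomethylated, bridges streptavidin donor and antibody-captured acceptor beads. Enzyme at 20 nM was preincubated 15 min with test compounds; peptide 500 nM and SAM 20 uM then reacted for 2 h.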
# A number is an active result; 0 = inactive; ? = inconclusive; - = not tested or not shown; [ ] = dose if it differs, or a comment. Shown are actives, neighbours in structure and some others; about 13% of the full set was active somewhere. Unless noted, the call rests on the fitted dose curve; in most records, active means well fitted curve in the direction sought with a large enough effect; inconclusive means small, poorly fitted or top-dose-only effect, or another doubt; inactive means no such curve, though single readings can be large; an effect the other way counts as inactive or inconclusive.
SMILES,ALDH1A1 block,LMNA splice mod,JMJD2E inh,miR-21 reporter,Sfp PPTase inh,G9a block
Cc1[nH]c2ccc(C(=O)OC(C)C(=O)N(C)C3CCCCC3)cc2c1C (stereo not given),-,-,-,-,-,45µM
CC(=O)Nc1ccc(NC(=O)C(C)OC(=O)c2ccc3[nH]c(C)c(C)c3c2)cc1 (stereo not given),-,-,-,-,-,50µM
O=c1oc2cc(OCCO)ccc2c2c1CCCC2,-,-,-,0,0,-
COc1ccc(/C=C/CN2CCCC(C(=O)c3ccc(OC)c(F)c3)C2)cc1 (stereo not given),?,-,0,0,0,0
COc1ccc(OC)c(NC(=O)c2csnn2)c1,-,0,-,0,-,14µM
COc1ccc(OC)c(NC(=O)CSc2ccccc2)c1,0,0,0,0,0,0[12.7 µM]
COc1ccc(OC)c(NC(=O)CSc2ccc3ccccc3c2)c1,11µM,?,0,0,0,?
COc1ccc(OC)c(NC(=O)CSc2ncnc3c2cnn3-c2ccccc2Cl)c1,16µM,0,0,0,0,?
COc1cc(NC(=O)CSc2ncnc3c2cnn3Cc2ccccc2)cc(OC)c1,?,0,0,0,0,0
COc1ccc(OC)c(NC(=O)CSCC(=O)O)c1,20µM,0,0,0,0,0[12.7 µM]
CCOc1ccc(OCC)c(NC(=O)CSCC(=O)O)c1,?,0,0,0,0,?
C=CCN(CC=C)CC(=O)Nc1ccc(S(N)(=O)=O)cc1,0,0,0,0,0,0.71µM
CC(C)c1ccc(OCC(=O)Nc2ccc(S(=O)(=O)Nc3ncccn3)cc2)cc1,-,-,-,0,-,0
CC(=O)[C@H]1[C@H]([C@H](O)[C@H](O)CO)O[C@](O)(C(=O)O)C[C@@H]1O,-,-,-,-,-,0.5µM
CCOC(=O)c1c(NC(=O)/C=C/C(=O)O)sc(C)c1-c1ccc(Cl)cc1,20µM,?,0,0,0,0[12.7 µM]
Cc1sc(NC(=O)CCCC(=O)O)c(C(N)=O)c1-c1ccccc1,?,?,?,0,0,25µM
CCOC(=O)c1c(NC(=S)N2CCN(C)CC2)sc(C)c1-c1ccccc1,-,-,-,0,0,45µM
CCOC(=O)c1c(NC(=O)CN2CCCCC2)sc(CN(C)C)c1-c1ccccc1,0,-,0,0,0,?
CCOC(=O)c1c(NC(=O)CCl)sc(CN(C)C)c1-c1ccccc1,7.1µM,?,0,0,0,?
CCOC(=O)c1ccc(NC(=S)N2CCN(C)CC2)cc1,-,-,-,0,0,0
COC(=O)c1c(NC(=O)CCCC(=O)O)sc(C)c1C,0,0,0,0,0,0
CCOc1ccc(NC(=S)NC(=O)/C=C/c2ccc(OC)c(OC)c2)c([N+](=O)[O-])c1,0,0,0,0,50µM,50µM
COc1ccc(C(=O)NC(=S)Nc2ccc([N+](=O)[O-])cc2C)cc1OC,14µM,0,0,0,56µM,0
COc1ccc(C(=O)NC(=S)Nc2cccc3nc(C)ccc23)cc1OC,-,-,0,0,0,0
COc1ccc(C(=O)NC(=S)Nc2ccccc2[N+](=O)[O-])cc1OC,?,0,0,0,89µM,?
SMILES,ALDH1A1 block,LMNA splice mod,JMJD2E inh,miR-21 reporter,Sfp PPTase inh,G9a block
COc1ccc(C(=O)/C=C/Nc2ccc([N+](=O)[O-])cc2C)cc1OC,?,0,0,0,0,0
CCOc1ccc(NC(=S)NC(=O)/C=C/c2ccc(C)cc2)c([N+](=O)[O-])c1,?,?,0,0,0,0
CCONC(=O)Nc1ccccc1[N+](=O)[O-],0,0,0,0,0,71µM
O=C(CC(=O)Nc1ccccc1[N+](=O)[O-])Nc1ccccc1[N+](=O)[O-],-,-,-,0,0,0
Cc1cccc(C)c1-n1ncc(C(=O)N2CCN(c3ccccc3)CC2)c1C1CCN(C(=O)OC(C)(C)C)CC1,-,0,-,0,-,0
CCN(c1ccccc1C(=O)O)S(=O)(=O)c1ccc2[nH]c(=O)[nH]c2c1,-,-,-,0,0,?
O=C(CNCc1cccc2ccccc12)Nc1ccccc1[N+](=O)[O-],?,0,0,0,0,50µM
O=C(NCCS(=O)(=O)c1ccc(Br)cc1)c1ccc(Cl)cc1Cl,-,-,-,0,0,-
OC(c1ccc(Cl)cc1)c1nccc2ccccc12 (stereo not given),-,-,-,0,0,40µM
CC(C)C(OC(=O)c1ccccc1)c1nccc2ccccc12 (stereo not given),-,-,0,0,0,0
O=C(Nc1ccc(F)c(F)c1)c1cc(S(=O)(=O)N2CCN(c3ccccn3)CC2)ccc1F,0,0,0,0,0,?
O=C(Nc1c(F)cc(F)cc1Br)c1cc(S(=O)(=O)N2CCN(c3ccccn3)CC2)ccc1F,?,0,0,0,0,50µM
O=C(C1=C(O)C(=O)N(CCCn2ccnc2)C1c1ccccc1)c1ccco1 (stereo not given),-,-,-,0,0,-
C=CCOc1cccc(C2C(C(=O)c3ccco3)=C(O)C(=O)N2Cc2cccnc2)c1 (stereo not given),-,-,-,0,0,32µM
Cc1ccc(C(=O)C2=C(O)C(=O)N(Cc3ccco3)C2c2cccc(Br)c2)o1 (stereo not given),-,-,-,0,56µM,?
O=C(C1=C(O)C(=O)N(Cc2ccccc2)C1c1ccncc1)c1ccco1 (stereo not given),?,0,?,0,0,40µM
Cc1ccc(C(=O)C2=C(O)C(=O)N(c3ncccn3)C2c2cccc(Cl)c2)o1 (stereo not given),13µM,0,0,0,?,10µM
CCOC(=O)c1c(S(=O)(=O)N2CCC(C(=O)Nc3ccc(C)c(Cl)c3)CC2)c(C)n(C)c1C,-,?,-,0,-,0
CC(C)CN1CCC2(CC1)CCN(C(=O)c1cnccn1)CC2,0,-,-,-,0,?
CCOCCCn1c(=N)c(C(=O)NC2CCCC2)cc2c(=O)n3cc(C)ccc3nc21,-,-,-,0,-,0
O=C(C1=C(O)C(=O)N(Cc2ccco2)C1c1cccc(O)c1)c1ccco1 (stereo not given),-,-,-,0,0,50µM
CC(=O)C1=C(O)C(=O)N(Cc2ccco2)C1c1cccc(F)c1 (stereo not given),0,-,?,0,0,0
Cc1ccc(C(=O)C2=C(O)C(=O)N(Cc3ccco3)C2c2cccc(Cl)c2)o1 (stereo not given),-,-,-,0,0,40µM
COc1ccccc1CNC(=O)C(NC(=O)c1ccccc1C)C(C)C (stereo not given),0,-,0,0,0,0
O=c1cc(CSc2nnnn2-c2ccccc2)nc2scc(-c3ccccc3)n12,3.2µM,0,?,0,0,0[12.7 µM]
COc1ccc(C)cc1-n1nnnc1SCc1cn2ccsc2n1,14µM,0,0,0,0,0
O=c1cc(CSc2nnnn2-c2ccccc2)nc2sccn12,13µM,0,0,0,0,0
CC(C)Nc1nnc(SCc2cc(=O)n3ccsc3n2)s1,?,0,?,0,56µM,0
O=c1cc(CSc2nnnn2-c2ccccc2)nc2nc[nH]n12,?,0,0,0,0,0[12.7 µM]
Cn1nnnc1SCc1cc(=O)n2ccsc2n1,0,0,0,0,0,0
